Paper PMC8523698, “Preclinical characterization of an intravenous coronavirus 3CL protease inhibitor for the potential treatment of COVID19” (Nature Communications, 2021)

Biological target: T1, OATP1B1 (Homo sapiens, UniProt Q9Y6L6)
T1 sequence (Q9Y6L6 1-691): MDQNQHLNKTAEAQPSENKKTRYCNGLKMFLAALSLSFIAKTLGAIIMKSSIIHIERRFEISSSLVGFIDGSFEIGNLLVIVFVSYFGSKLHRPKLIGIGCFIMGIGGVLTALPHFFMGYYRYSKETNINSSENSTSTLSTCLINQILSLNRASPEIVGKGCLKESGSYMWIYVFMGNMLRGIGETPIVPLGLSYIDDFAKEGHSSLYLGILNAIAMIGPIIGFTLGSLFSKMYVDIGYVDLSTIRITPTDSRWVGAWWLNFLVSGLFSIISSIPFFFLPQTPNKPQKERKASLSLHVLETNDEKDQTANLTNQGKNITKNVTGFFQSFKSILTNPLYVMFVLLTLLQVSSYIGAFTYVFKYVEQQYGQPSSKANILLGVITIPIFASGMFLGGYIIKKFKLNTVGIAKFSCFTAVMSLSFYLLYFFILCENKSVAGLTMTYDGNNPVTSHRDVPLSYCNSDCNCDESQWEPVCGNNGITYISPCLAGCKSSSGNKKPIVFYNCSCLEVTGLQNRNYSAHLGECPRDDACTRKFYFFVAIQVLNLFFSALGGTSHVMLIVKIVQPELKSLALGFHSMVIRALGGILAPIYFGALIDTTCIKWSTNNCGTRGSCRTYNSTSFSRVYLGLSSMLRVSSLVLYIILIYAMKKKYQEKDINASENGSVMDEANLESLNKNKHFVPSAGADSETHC
Assay: Transporter inhibition using transfected HEK293 cells
Settings: uptake of Rosuvastatin by OATP1B1; inhibitor 300.0000 uM

COc1cccc2[nH]c(C(=O)N[C@@H](CC(C)C)C(=O)N[C@@H](C[C@@H]3CCNC3=O)C(=O)CO)cc12 [PF-00835231]
% Uptake Activity: 2.3% and 1.8% and 2.6%

Where “and” joins values, the source holds several entries; their conditions need not be identical. Identical values can stand only once.
